Earlier results on one compound are cited in US9061077B2 (Emory University, priority 2008, dated 2015).

Molecules are shown by their SMILES. Where two headings read alike, the source gives them in different places.

The conditions of data set [1]: literature; cited from earlier work.
The conditions of data set [2]: mice (n=5), cited from earlier work.

On to `O=C([O-])CN=C([O-])CN=C([O-])CN=C([O-])C[S-].[O-2].[Tc+4]` [^99mTc-MAG3, technetium-99m mercaptoacetyltriglycine], for which the “Clearance as percent of that of 131I-OIH” value in data set [1] is 50-60%. Moreover, the “Urine (99mTc/131I ratio), injected dose in urine as percentage of 131I-OIH” value is given as 107 ± 0.3^ % in data set [2] (10 min, published data) and 103 ± 0.5^d % in data set [2] (row headed 60 min, footnote says 120 mins).
